Experimental findings from patent publication US8993586B2, “N1/N2-lactam acetyl-CoA carboxylase inhibitors” (Pfizer Inc., priority 2010, dated 2015) are described below.

Chains of the proteins cited; added tags and fusions are not shown.
UniProt O00763, whole entry V2141I: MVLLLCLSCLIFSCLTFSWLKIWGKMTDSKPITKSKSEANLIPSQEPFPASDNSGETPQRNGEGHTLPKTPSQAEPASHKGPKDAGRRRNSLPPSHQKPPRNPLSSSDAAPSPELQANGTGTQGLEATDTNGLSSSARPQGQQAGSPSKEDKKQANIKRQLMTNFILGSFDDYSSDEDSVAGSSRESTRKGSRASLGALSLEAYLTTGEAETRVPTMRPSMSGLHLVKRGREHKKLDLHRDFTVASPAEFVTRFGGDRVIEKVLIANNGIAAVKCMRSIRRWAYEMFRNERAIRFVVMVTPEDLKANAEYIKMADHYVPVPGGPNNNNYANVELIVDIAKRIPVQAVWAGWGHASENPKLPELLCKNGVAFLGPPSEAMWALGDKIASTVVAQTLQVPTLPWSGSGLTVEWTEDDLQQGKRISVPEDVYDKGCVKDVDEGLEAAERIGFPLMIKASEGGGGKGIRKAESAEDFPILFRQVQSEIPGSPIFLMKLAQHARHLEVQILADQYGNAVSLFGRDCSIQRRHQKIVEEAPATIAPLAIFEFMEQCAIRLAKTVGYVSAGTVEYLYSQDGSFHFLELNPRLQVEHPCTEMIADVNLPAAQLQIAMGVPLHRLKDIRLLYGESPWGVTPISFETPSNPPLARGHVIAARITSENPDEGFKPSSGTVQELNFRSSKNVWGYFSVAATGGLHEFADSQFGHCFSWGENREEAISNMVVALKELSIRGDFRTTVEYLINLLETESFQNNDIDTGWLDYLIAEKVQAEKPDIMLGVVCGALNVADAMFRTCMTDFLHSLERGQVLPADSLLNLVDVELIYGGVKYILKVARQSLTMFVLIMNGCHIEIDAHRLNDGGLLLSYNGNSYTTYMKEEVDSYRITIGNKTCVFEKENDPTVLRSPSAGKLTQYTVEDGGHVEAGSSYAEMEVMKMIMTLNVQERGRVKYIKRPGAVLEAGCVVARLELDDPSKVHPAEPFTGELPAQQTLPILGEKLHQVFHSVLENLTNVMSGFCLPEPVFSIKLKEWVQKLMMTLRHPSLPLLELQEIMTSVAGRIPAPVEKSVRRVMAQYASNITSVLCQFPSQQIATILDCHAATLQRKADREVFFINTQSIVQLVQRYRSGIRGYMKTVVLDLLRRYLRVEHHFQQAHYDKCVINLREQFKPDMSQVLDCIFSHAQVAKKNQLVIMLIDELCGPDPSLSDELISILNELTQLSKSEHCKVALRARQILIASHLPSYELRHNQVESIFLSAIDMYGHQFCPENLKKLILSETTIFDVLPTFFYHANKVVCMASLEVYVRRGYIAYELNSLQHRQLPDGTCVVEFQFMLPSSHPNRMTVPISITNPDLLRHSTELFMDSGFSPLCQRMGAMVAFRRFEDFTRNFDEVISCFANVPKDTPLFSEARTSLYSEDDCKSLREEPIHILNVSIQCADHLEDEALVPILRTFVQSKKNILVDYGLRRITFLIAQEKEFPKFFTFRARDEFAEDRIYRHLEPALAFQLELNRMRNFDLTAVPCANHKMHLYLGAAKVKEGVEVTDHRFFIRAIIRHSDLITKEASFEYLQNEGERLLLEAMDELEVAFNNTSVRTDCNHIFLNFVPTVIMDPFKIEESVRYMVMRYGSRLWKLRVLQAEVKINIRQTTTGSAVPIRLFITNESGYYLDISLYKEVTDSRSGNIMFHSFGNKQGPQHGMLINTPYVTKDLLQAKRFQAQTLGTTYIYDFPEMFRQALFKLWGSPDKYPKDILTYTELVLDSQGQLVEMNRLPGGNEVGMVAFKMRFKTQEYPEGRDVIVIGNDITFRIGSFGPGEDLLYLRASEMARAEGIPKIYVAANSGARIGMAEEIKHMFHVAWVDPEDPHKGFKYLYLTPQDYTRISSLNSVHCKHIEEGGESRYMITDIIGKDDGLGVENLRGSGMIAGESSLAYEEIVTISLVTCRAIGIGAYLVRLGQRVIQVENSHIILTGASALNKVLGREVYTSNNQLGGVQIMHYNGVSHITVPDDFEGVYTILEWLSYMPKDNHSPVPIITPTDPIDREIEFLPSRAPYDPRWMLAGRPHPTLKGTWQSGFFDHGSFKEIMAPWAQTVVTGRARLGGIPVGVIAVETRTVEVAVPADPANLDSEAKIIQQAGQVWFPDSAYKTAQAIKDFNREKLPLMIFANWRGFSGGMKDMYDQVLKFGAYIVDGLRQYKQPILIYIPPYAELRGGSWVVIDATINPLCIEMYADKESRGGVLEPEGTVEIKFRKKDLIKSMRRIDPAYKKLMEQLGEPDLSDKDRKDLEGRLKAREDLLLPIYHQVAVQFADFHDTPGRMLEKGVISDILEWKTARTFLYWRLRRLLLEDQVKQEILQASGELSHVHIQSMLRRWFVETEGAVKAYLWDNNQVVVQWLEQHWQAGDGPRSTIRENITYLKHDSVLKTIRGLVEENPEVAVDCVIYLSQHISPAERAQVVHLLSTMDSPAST

pIC50: −log10 of the molar value.

The target of assay [1] is recombinant human ACC1 (rhACC1) (Homo sapiens (Human), UniProt Q13085). The assay is described as follows: recombinant hACC1 Transcreener ADP detection FP assay. It counts as biochemical. The settings on record: read-out: hACC1 IC50, 50 μM ATP, 120 min at 25° C.
Assay [2] has as its target recombinant human ACC2 (rhACC2) (Homo sapiens (Human), UniProt O00763). The assay is described as follows: recombinant hACC2 Transcreener ADP detection FP assay. It counts as biochemical. As to conditions: read-out: hACC2 IC50, 50 uM ATP, 50 min at 25° C.

The term pIC50 denotes the IC50 on a negative log10 scale, so that one unit is a factor of ten. Regarding `CC(C)n1cc2c(n1)C(=O)NC1(CCN(C(=O)c3ccc4[nH]ncc4c3)CC1)C2`, the figures for the pIC50 in assay [1] and in assay [2] were 6.48 and 7.01, respectively.
